System: CTL response
Design: species or system HLA-A2.1/K^b-H-2^bxs transgenic mice
Conditions: mouse; for Immunogenicity In Vivo (IFA): No. CTL-Positive Cultures: sc

Molecule	Immunogenicity In Vivo (IFA): CTL Response (Geo. Mean ΔLU)	Immunogenicity In Vivo (IFA): No. CTL-Positive Cultures
CC(C)C[C@H](NC(=O)[C@@H](NC(=O)[C@@H](NC(=O)[C@H](CS)NC(=O)[C@H](CC(C)C)NC(=O)[C@@H]1CCCN1C(=O)[C@@H](NC(=O)[C@H](CC(C)C)NC(=O)[C@@H](N)CCCCN)[C@@H](C)O)C(C)C)[C@@H](C)O)C(=O)O [HIV Env 120]	6.4 (1.3) ΔLU	2/5
FLPSDFFPSV [HBV Core 18]	73.0 (1.1) ΔLU	6/6
